Measured properties of organic chemicals

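The numbers are reported measurements, compiled and curated for the OPERA QSAR suite. One number stands for a compound and property, with no spread given. How each value was measured is not recorded, so precision varies. Where a salt, mixture or single isomer is drawn, the source does not say that exactly this form was tested. Some upstream entries may be estimates or bounds without being marked so.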

The melting point is given in degrees Celsius. Boiling points are in °C, nominally at 760 mmHg. The octanol-water partition coefficient is given as log10; larger values mean a more lipophilic compound. Solubility in water is on a log10 molar scale (set defined at 25 °C). Vapor pressure is log10 of mmHg; the set covers 15 to 30 °C, mostly 20 to 25 °C. The Henry's law constant is on a log10 scale in atm·m3/mol (set defined at 25 °C); higher favours air over water. Clint is human hepatic intrinsic clearance in µL/min per million cells; 0 means that no clearance was seen. Cells with "n/a" have no entry in this list.

Listed for CC(C)(C)C(=O)OCCc1ccccc1 [2-Phenylethyl pivalate]: logP (octanol/water) 3.86 and water solubility -3.675 (log10 mol/L) and log vapor pressure -2.021 (log10 mmHg).
Listed for CCCCN(C)C(=O)Nc1ccc(Cl)c(Cl)c1 [Neburon]: log vapor pressure -6 (log10 mmHg) and log H -8.902 (log10 atm·m3/mol).
Listed for N#CCCN(CCC#N)c1ccc(N=Nc2c(Cl)cc([N+](=O)[O-])cc2Cl)cc1: MP 181.1 °C and logP (octanol/water) 3.6 and water solubility -7.115 (log10 mol/L).
Listed for COc1ccc(CCC(=O)c2c(O)cc(O[C@@H]3O[C@H](CO)[C@@H](O)[C@H](O)[C@H]3O[C@@H]3O[C@@H](C)[C@H](O)[C@@H](O)[C@H]3O)cc2O)cc1O [Neohesperidin dihydrochalcone]: logP (octanol/water) 0.67 and log vapor pressure -12.09 (log10 mmHg).
Listed for Oc1ccc(-c2ccc(O)cc2)cc1 [4,4'-Biphenyldiol]: logP (octanol/water) 2.7 and water solubility -3.742 (log10 mol/L).
Listed for CCC(COC(=O)CC(C)CC(C)(C)C)(COC(=O)CC(C)CC(C)(C)C)COC(=O)CC(C)CC(C)(C)C (stereo not given) [Trimethylolpropane tris(3,5,5-trimethylhexanoate)]: MP -51 °C and water solubility -6.232 (log10 mol/L) and log vapor pressure -7.62 (log10 mmHg).
Listed for CCCCCCCCCCCCOC(=O)c1cc(O)c(O)c(O)c1 [Lauryl gallate]: water solubility -6.393 (log10 mol/L) and log vapor pressure -8.991 (log10 mmHg) and Clint 0 µL/min/10^6 cells.
Listed for CCC(C)N(C(=O)SCc1ccccc1)C(C)CC (stereo not given) [Tiocarbazil]: log vapor pressure -3.156 (log10 mmHg) and log H -5.783 (log10 atm·m3/mol).
Listed for Cc1csc2c(Cl)cccc12 [7-Chloro-3-methyl-1-benzothiophene]: MP 11.2 °C and logP (octanol/water) 4.19 and water solubility -4.278 (log10 mol/L) and log vapor pressure -1.842 (log10 mmHg).
Listed for Cc1c(Br)c2ccc(F)cc2n1S(=O)(=O)c1ncn(S(=O)(=O)N(C)C)n1 [Amisulbrom]: MP 129.3 °C and logP (octanol/water) 4.4 and log vapor pressure -4.745 (log10 mmHg).
Listed for CCCCC[C@@H]1CCC[C@@H]1O (relative stereo) [cis-2- Pentylcyclopentanol]: MP -22 °C and boiling point 222.3 °C and logP (octanol/water) 3.68 and water solubility -2.872 (log10 mol/L) and log vapor pressure -1.435 (log10 mmHg).
Listed for Cc1cc([N+](=O)[O-])ccc1N=Nc1c(O)c(C(=O)Nc2ccccc2C)cc2ccccc12: MP 285 °C and water solubility -7.981 (log10 mol/L).
Listed for CN1CCN(C(=O)[C@H](OCc2ccccc2)[C@@H](OCc2ccccc2)[C@H](OCc2ccccc2)[C@@]2(COCc3ccccc3)COC(C)(C)O2)CC1: MP 91 °C and water solubility -6.327 (log10 mol/L).
Listed for Cc1ccc(C(=O)OCCCl)cc1N=Nc1c(O)c(C(=O)Nc2cc(C)c(NC(=O)c3cc4ccccc4c(N=Nc4cc(C(=O)OCCCl)ccc4C)c3O)cc2C)cc2ccccc12: logP (octanol/water) -0.15 and water solubility -7.814 (log10 mol/L).
Listed for C=C1CCOC(c2ccc(O)c(OC)c2)C1 (stereo not given) [Phenol, 2-methoxy-4-(tetrahydro-4-methylene-2H-pyran-2-yl)-]: boiling point 266 °C and logP (octanol/water) 2.31 and log vapor pressure -4.578 (log10 mmHg).
Listed for COS(=O)(=O)[O-].COc1ccc(N(C)/N=C/C2=[N+](C)c3ccccc3C2(C)C)cc1 [C.I. Basic Yellow 28]: logP (octanol/water) -1.1 and log vapor pressure -6.76 (log10 mmHg).
Listed for O=C(O)[C@H]1O[C@H](O)[C@H](O)[C@@H](O)[C@@H]1O [alpha-D-Glucuronic acid]: MP 143.5 °C and logP (octanol/water) -2.57 and water solubility 0.398 (log10 mol/L).
Listed for COc1cc(NS(=O)(=O)c2ccc(C)cc2)c2c(c1N)C(=O)c1ccccc1C2=O [C.I. Disperse Red 86]: MP 227.7 °C and log vapor pressure -12.56 (log10 mmHg).

2 of these entries, quoted again:

| SMILES | name | MP (°C) | boiling point (°C) | logP (octanol/water) | water solubility (log10 mol/L) | log vapor pressure (log10 mmHg) | log H (log10 atm·m3/mol) | Clint (µL/min/10^6 cells) |
|---|---|---|---|---|---|---|---|---|
| O=C(O)[C@H]1O[C@H](O)[C@H](O)[C@@H](O)[C@@H]1O | alpha-D-Glucuronic acid | 143.5 | n/a | -2.57 | 0.398 | n/a | n/a | n/a |
| CC(C)(C)C(=O)OCCc1ccccc1 | 2-Phenylethyl pivalate | n/a | n/a | 3.86 | -3.675 | -2.021 | n/a | n/a |

From the experimental data distributed with OPERA 2.9.